Earlier results on 25 compounds are cited in PubChem BioAssay AID977611.

pKd: −log10 of the molar value.

Common to all, as to assay: PubChem AID 977611
One data set addresses kes1 protein. The note with it: PDB protein-ligand complexes, literature Kd; protein: kes1 protein; PDB entry 1ZHY.
The target in data set [1] is 3,4 PCD from acinetobacter SP. ADP1 MUTANT R457S. The note with it: PDB protein-ligand complexes, literature Kd; protein: 3,4 PCD from acinetobacter SP. ADP1 MUTANT R457S; PDB entry 2BUV.
Data set [2] has as its target protocatechuate 3,4-dioxygenase. The note with it: PDB protein-ligand complexes, literature Kd; protein: protocatechuate 3,4-dioxygenase; PDB entry 1YKP.
The target of a further data set is agglutinin alpha chain. The settings on record: PDB protein-ligand complexes, literature Kd; protein: agglutinin alpha chain; PDB entry 1UGY.
Data set [3] addresses Transitional endoplasmic reticulum ATPase, R86A mutant. The note with it: PDB protein-ligand complexes, literature Kd; protein: Transitional endoplasmic reticulum ATPase, R86A mutant; PDB entry 3HU2.
Data set [4] addresses Transitional endoplasmic reticulum ATPase, R95G mutant. The note with it: PDB protein-ligand complexes, literature Kd; protein: Transitional endoplasmic reticulum ATPase, R95G mutant; PDB entry 3HU1.
Data set [5] addresses dna polymerase iii, delta subunit. The settings on record: PDB protein-ligand complexes, literature Kd; protein: dna polymerase iii, delta subunit; PDB entry 1XXH.
Data set [6] deals with dna polymerase iii, gamma subunit. The note with it: PDB protein-ligand complexes, literature Kd; protein: dna polymerase iii, gamma subunit; PDB entry 1NJF.
Data set [7] addresses Transitional endoplasmic reticulum ATPase, R155H mutant. The note with it: PDB protein-ligand complexes, literature Kd; protein: Transitional endoplasmic reticulum ATPase, R155H mutant; PDB entry 3HU3.
Data set [8] addresses oligo-peptide binding protein. The settings on record: PDB protein-ligand complexes, literature Kd; protein: oligo-peptide binding protein; PDB entry 1QKA.
Data set [9] concerns the target calmodulin-sensitive adenylate cyclase. The settings on record: PDB protein-ligand complexes, literature Kd; protein: calmodulin-sensitive adenylate cyclase; PDB entry 1XFV.
In data set [10] the target is apoptosis regulator bcl-x. The settings on record: PDB protein-ligand complexes, literature Kd; protein: apoptosis regulator bcl-x; PDB entry 1YSG.
Data set [11] addresses hepatocyte growth factor receptor. The settings on record: PDB protein-ligand complexes, literature Kd; protein: hepatocyte growth factor receptor; PDB entry 1R0P.
The next data set has as its target dihydrofolate reductase. The note with it: PDB protein-ligand complexes, literature Kd; protein: dihydrofolate reductase; PDB entry 2D0K.
For data set [12], the target named is glutamate receptor, ionotropic kainate 1. The note with it: PDB protein-ligand complexes, literature Kd; protein: glutamate receptor, ionotropic kainate 1; PDB entry 2F34.
In the next data set the target is uridine phosphorylase. The note with it: PDB protein-ligand complexes, literature Kd; protein: uridine phosphorylase; PDB entry 1Q1G.
The target of a further data set is 1RYH A. The note with it: PDB protein-ligand complexes, literature Kd; PDB entry 1RYH.
Data set [13] addresses phenazine biosynthesis protein phzf. The note with it: PDB protein-ligand complexes, literature Kd; protein: phenazine biosynthesis protein phzf; PDB entry 1U1W.
Data set [14] deals with phospholipase a2 isoform 3. The settings on record: PDB protein-ligand complexes, literature Kd; protein: phospholipase a2 isoform 3; PDB entry 1TD7.
A further data set deals with H.HALOPHILA DODECIN. The note with it: PDB protein-ligand complexes, literature Kd; protein: H.HALOPHILA DODECIN; PDB entry 2VXA.
In data set [15] the target is immunoglobulin igg1 lambda light chain. The note with it: PDB protein-ligand complexes, literature Kd; protein: immunoglobulin igg1 lambda light chain; PDB entry 2FL5.
In data set [16] the target is 6,7-dimethyl-8-ribityllumazine synthase. The note with it: PDB protein-ligand complexes, literature Kd; protein: 6,7-dimethyl-8-ribityllumazine synthase; PDB entry 1KYV.
For data set [17], the target named is H. SALINARUM DODECIN E45A MUTANT. The settings on record: PDB protein-ligand complexes, literature Kd; protein: H. SALINARUM DODECIN E45A MUTANT; PDB entry 2VX9.
A further data set has as its target shikimate kinase. The note with it: PDB protein-ligand complexes, literature Kd; protein: shikimate kinase; PDB entry 1WE2.
For the next data set, the target named is flavodoxin. The settings on record: PDB protein-ligand complexes, literature Kd, protein: flavodoxin.
In another data set the target is fmn-binding protein. The note with it: PDB protein-ligand complexes, literature Kd; protein: fmn-binding protein; PDB entry 1FLM.
For data set [18], the target named is Alkanal monooxygenase, Bacterial Luciferase. The settings on record: PDB protein-ligand complexes, literature Kd; protein: Alkanal monooxygenase, Bacterial Luciferase; PDB entry 3FGC.
Another data set concerns the target nadh oxidase. The settings on record: PDB protein-ligand complexes, literature Kd; protein: nadh oxidase; PDB entry 1NOX.
In another data set the target is pol polyprotein. The settings on record: PDB protein-ligand complexes, literature Kd; protein: pol polyprotein; PDB entry 1T7J.
The next data set deals with neocarzinostatin. The note with it: PDB protein-ligand complexes, literature Kd; protein: neocarzinostatin; PDB entry 1O5P.
The target in data set [19] is sarcoplasmic/endoplasmic reticulum calcium. The note with it: PDB protein-ligand complexes, literature Kd; protein: sarcoplasmic/endoplasmic reticulum calcium; PDB entry 2AGV.
Data set [20] deals with 2,2-dialkylglycine decarboxylase. The note with it: PDB protein-ligand complexes, literature Kd; protein: 2,2-dialkylglycine decarboxylase; PDB entry 1ZC9.
For data set [21], the target named is Major urinary protein 2, MUP chimera (MUPcd). The settings on record: PDB protein-ligand complexes, literature Kd; protein: Major urinary protein 2, MUP chimera (MUPcd); PDB entry 2NND.
For the next data set, the target named is odorant-binding protein. The note with it: PDB protein-ligand complexes, literature Kd; protein: odorant-binding protein; PDB entry 1DZK.
For another data set, the target named is major urinary protein. The note with it: PDB protein-ligand complexes, literature Kd; protein: major urinary protein; PDB entry 1QY1.
The target in data set [22] is glutathione s-transferase class pi. The settings on record: PDB protein-ligand complexes, literature Kd; protein: glutathione s-transferase class pi; PDB entry 1LBK.
The target of data set [23] is glutathione s-transferase. The settings on record: PDB protein-ligand complexes, literature Kd; protein: glutathione s-transferase; PDB entry 1R4W.
The target of data set [24] is osmoprotection protein (prox). The note with it: PDB protein-ligand complexes, literature Kd; protein: osmoprotection protein (prox); PDB entry 1SW1.
For another data set, the target named is galectin-2. The settings on record: PDB protein-ligand complexes, literature Kd; protein: galectin-2; PDB entry 1ULG.

As for `CC(C)CCC[C@@H](C)[C@H]1CC[C@H]2[C@@H]3CC=C4C[C@@H](O)CC[C@]4(C)[C@H]3CC[C@]12C`, the pKd – broadly, the Kd on a negative log10 scale, so that one unit is a factor of ten – on kes1 protein was 6.52. Take `O=C(O)c1ccc(O)c(O)c1`: the pKd was 4.00 in [1] and 2.96 in data set [2]. On to `OC[C@H]1O[C@H](OC[C@H]2O[C@@H](O)[C@H](O)[C@@H](O)[C@@H]2O)[C@H](O)[C@@H](O)[C@H]1O`, for which, on agglutinin alpha chain, the pKd was 3.72. Consider `Nc1ncnc2c1ncn2[C@@H]1O[C@H](COP(=O)(O)OP(=O)(O)OP(O)(O)=S)[C@@H](O)[C@H]1O`, for which the pKd is 7.22 in data set [3]; 6.89 in data set [4]; 6.11 in data set [5]; 5.99 in [6]; 6.89 in data set [7]. For the compound `NCCCC[C@H](NC(=O)[C@H](CCCN=C(N)N)NC(=O)[C@@H](N)CCCCN)C(=O)O`, the pKd in [8] is 5.92.

Turning to `Nc1ncnc2c1ncn2[C@@H]1O[C@H](COP(=O)(O)OP(=O)(O)OP(=O)(O)O)C[C@H]1O`, in [9], the pKd is 3.89.

`O=C(O)c1ccc(-c2ccc(F)cc2)cc1`: the pKd in data set [10] was 3.52. As for `COC(=O)[C@@]1(O)C[C@H]2O[C@]1(C)n1c3ccccc3c3c4c(c5c6ccccc6n2c5c31)C(=O)NC4`, in [11], the pKd is 8.00.

Regarding `Nc1nc2ncc(CNc3ccc(C(=O)N[C@@H](CCC(=O)O)C(=O)O)cc3)nc2c(=O)[nH]1`, the pKd on dihydrofolate reductase is 5.02.

Turning to `Cc1cn(C[C@H](N)C(=O)O)c(=O)n(Cc2ccsc2C(=O)O)c1=O`, the pKd in data set [12] is 6.89. In the case of `CSC[C@H]1N[C@@H](c2c[nH]c3c(=O)[nH]cnc23)[C@H](O)[C@@H]1O`, on uridine phosphorylase, the pKd is 8.57. As to `Nc1nc2c(ncn2[C@@H]2O[C@H](COP(=O)(O)OP(=O)(O)NP(=O)(O)O)[C@@H](O)[C@H]2O)c(=O)[nH]1`, the pKd on 1RYH A is 7.56. Consider `Nc1c(O)cccc1C(=O)O`, for which the pKd in data set [13] was 5.85. In the case of `O=C(O)c1cccnc1Nc1cccc(C(F)(F)F)c1`, the pKd in [14] is 4.37. For `Cc1cc2nc3c(=O)[nH]c(=O)nc-3n(C[C@H](O)[C@H](O)[C@H](O)CO)c2cc1C`, the pKd on H.HALOPHILA DODECIN was 5.60; in data set [15], 8.74; in [16] it was 5.92; in data set [17], 7.44. For the compound `O=C(O)C1=C[C@@H](O)[C@@H](O)[C@H](O)C1`, at shikimate kinase, the pKd was 4.36. Turning to `Cc1cc2nc3c(=O)[nH]c(=O)nc-3n(C[C@H](O)[C@H](O)[C@H](O)COP(=O)(O)O)c2cc1C`, the pKd at flavodoxin (PDB entry 1AKQ) was 9.10; at flavodoxin (PDB entry 1AKR) it was 9.09; on flavodoxin (PDB entry 1AKT), 8.49; at flavodoxin (PDB entry 1AKW) it was 8.59; at flavodoxin (PDB entry 1AZL) it was 8.62; at flavodoxin (PDB entry 1C7F), 9.52. In addition, the pKd at flavodoxin (PDB entry 1CZK) was 8.82; on flavodoxin (PDB entry 1CZL), 9.15; at flavodoxin (PDB entry 1CZR), 9.00; at fmn-binding protein it was 9.37; in data set [18], 3.92; at nadh oxidase it was 7.05. Regarding `CC(C)CN(C[C@@H](O)[C@H](Cc1ccccc1)NC(=O)O[C@H]1CCOC1)S(=O)(=O)c1ccc(N)cc1`, on pol polyprotein, the pKd was 8.70.

As for `CN[C@H]1[C@@H](O[C@@H]2/C3=C/C#C[C@H]4O[C@@]4([C@H]4COC(=O)O4)C#CC3=C[C@H]2OC(=O)c2c(O)ccc3c(C)cc(OC)cc23)O[C@H](C)[C@H](O)[C@@H]1O`, the pKd at neocarzinostatin is 10.00.

As to `CC(C)(C)c1cc(O)c(C(C)(C)C)cc1O`, the pKd in [19] was 7.70. For the compound `Cc1ncc(COP(=O)(O)O)c(CN)c1O`, the pKd in data set [20] is 3.22.

Turning to `COc1nccnc1CC(C)C`, the pKd in [21] is 6.06; at odorant-binding protein it was 6.10; on major urinary protein, 6.52. Consider `N[C@@H](CCC(=O)N[C@@H](CS)C(=O)NCC(=O)O)C(=O)O`, for which the pKd was 3.18 in data set [22] and 4.05 in data set [23]. Take `C[N+]1(C)CCC[C@H]1C(=O)O`: the negative logarithm of the Kd (pKd) in data set [24] is 7.30. Regarding `CC(=O)N[C@@H]1[C@@H](O[C@@H]2O[C@H](CO)[C@H](O)[C@H](O)[C@H]2O)[C@@H](O)[C@H](CO)O[C@H]1O`, the pKd at galectin-2 was 4.21.
